Test system: recurrent glioblastoma multiforme (GBM)
Assay: Phase I/II dose-escalation study: tumor response (RANO) in recurrent GBM patients
Settings: 25 patients across 8 dose cohorts

O[C@H]([C@H](O)[C@@H]1CO1)[C@H]1CO1 [dianhydrogalactitol]
maximum response (duration): 84 wks

From patent US11026914B2 (DelMar Pharmaceuticals, Inc., priority 2013, dated 2021)
